Laboratory results as given in article PMC5601360 (Journal of Medicinal Chemistry, 2017).

Biological target: T1, human KOP receptor (Homo sapiens, UniProt P41145)
T1 construct: expressed in transfected cells; host or cells: CHO-hKOP cells (gift of Dr. Lawrence Toll, SRI International)
Assay: Competition binding assay, CHO-hKOP cell membranes, [3H]U69,593
Conditions: for selectivity DOP/KOP: Ki ratio DOP/KOP; for selectivity MOP/KOP: Ki ratio MOP/KOP
Description: CHO cells stably expressing recombinant human KOP, MOP, or DOP receptors (CHO-hKOP, CHO-hMOP, and CHO-hDOP cell lines) were kindly provided by Dr. Lawrence Toll (SRI International, Menlo Park, CA). The CHO-hKOP cell line was maintained in Dulbecco’s Minimal Essential Medium (DMEM) supplemented with fetal bovine serum (FBS, 10%), penicillin/streptomycin (0.1%), L-glutamine (2 mM), and geneticin (400 μg/mL). The CHO-hMOP and CHO-hDOP cell lines were maintained in DMEM/Ham’s F-12 medium supplemented with FBS (10%), penicillin/streptomycin (0.1%), L-glutamine (2 mM), and geneticin (400 μg/mL). Cell cultures were maintained at 37 °C in 5% CO2 humidified air.
. Nonspecific binding was determined using 1–10 μM of the unlabeled counterpart of each radioligand. Assays were performed in 50 mM Tris-HCl buffer (pH 7.4) in a final volume of 1 mL. Cell membranes (15–20 μg) were incubated with the appropriate radioligand and various concentrations of test compound for 60 min at 25 °C. After incubation, reactions were terminated by rapid filtration through Whatman glass fiber filters. Filters were washed three times with 5 mL of ice-cold 50 mM Tris-HCl buffer (pH 7.4) using a Brandel M24R cell harvester (Gaithersburg, MD). Radioactivity retained on the filters was counted by liquid scintillation counting using a Beckman Coulter LS6500 (Beckman Coulter Inc., Fullerton, CA). All binding experiments were performed in duplicate and repeated at least three times. The inhibitory constant Ki values (in nM) were calculated from the competition binding curves by nonlinear regression analysis and the Cheng–Prusoff equation.[16]

SMILES	selectivity DOP/KOP	selectivity MOP/KOP
Cl.Oc1ccc(CCN(CCc2cccc(O)c2)CC2CCCCC2)cc1 [Compound 15, 3-[2-[(Cyclohexylmethyl)(4-hydroxyphenethyl)amino]ethyl]phenol Hydrochloride]	885	126
Cl.Oc1cccc(CCN(CCc2ccccc2)CC2CCCCC2)c1F [Compound 19, 3-[2-[(Cyclohexylmethyl)(phenethyl)amino]ethyl]-2-fluorophenol Hydrochloride]	>250000	21275
